Assay: xn = mol fraction of the nth substance listed

OCCOCCOCCOCCO + O
viscosity [mPa·s]
Conditions | 293.15 K | 298.15 K | 303.15 K | 308.15 K | 313.15 K | 318.15 K | 323.15 K
100 kPa, x1 = 0.0061 | – | 0.97 | 0.81 | 0.77 | 0.69 | 0.62 | 0.58
100 kPa, x1 = 0.0128 | – | 1.34 | 1.09 | 1 | 0.9 | 0.81 | 0.7
100 kPa, x1 = 0.0202 | – | 1.83 | 1.43 | 1.28 | 1.15 | 1.04 | 0.85
100 kPa, x1 = 0.0283 | – | 2.2 | 1.84 | 1.62 | 1.44 | 1.29 | 1.02
100 kPa, x1 = 0.0374 | – | 2.79 | 2.32 | 2.02 | 1.79 | 1.59 | 1.28
100 kPa, x1 = 0.0476 | – | 3.49 | 2.91 | 2.49 | 2.19 | 1.94 | 1.58
100 kPa, x1 = 0.0591 | – | 4.33 | 3.61 | 3.07 | 2.67 | 2.35 | 1.86
100 kPa, x1 = 0.0722 | – | 5.35 | 4.46 | 3.75 | 3.24 | 2.83 | 2.31
100 kPa, x1 = 0.0871 | – | 6.59 | 5.49 | 4.58 | 3.92 | 3.4 | 2.76
100 kPa, x1 = 0.1045 | – | 8.09 | 6.74 | 5.59 | 4.74 | 4.07 | 3.47
100 kPa, x1 = 0.1248 | – | 9.92 | 8.27 | 6.81 | 5.72 | 4.87 | 4.13
100 kPa, x1 = 0.1489 | – | 12.16 | 10.13 | 8.3 | 6.9 | 5.83 | 4.92
100 kPa, x1 = 0.1781 | – | 14.89 | 12.41 | 10.1 | 8.33 | 6.98 | 5.86
100 kPa, x1 = 0.2139 | – | 18.9 | 15.17 | 12.28 | 10.05 | 8.35 | 6.98
100 kPa, x1 = 0.2592 | – | 23.17 | 18.47 | 14.87 | 12.08 | 9.97 | 8.3
100 kPa, x1 = 0.3182 | – | 27.77 | 22.31 | 17.86 | 14.41 | 11.81 | 9.81
100 kPa, x1 = 0.398 | – | 33.45 | 26.46 | 21.06 | 16.91 | 13.79 | 11.44
100 kPa, x1 = 0.5122 | – | 38.36 | 30.3 | 23.98 | 19.23 | 15.65 | 12.98
100 kPa, x1 = 0.6374 | – | 41.26 | 32.15 | 25.12 | 20.46 | 16.68 | 13.64
100 kPa, x1 = 0.7615 | – | 42.88 | 33.5 | 26.78 | 21.38 | 17.42 | 14.18
100 kPa, x1 = 0.8856 | – | 43.94 | 34.36 | 27.15 | 21.9 | 18.02 | 14.8
100 kPa, x2 = 0.014 | 57.68 | 43.78 | 34.06 | 27.11 | 21.93 | 18.01 | 14.99
100 kPa, x2 = 0.056 | 57.01 | 45.22 | 35.36 | 28.2 | 22.87 | 18.85 | 15.74
100 kPa, x2 = 0.059 | 59.98 | 46.12 | 35.96 | 28.59 | 23.13 | 19.03 | 15.85
100 kPa, x2 = 0.065 | 56.56 | 43.89 | 34.35 | 27.46 | 22.31 | 18.38 | 15.34
100 kPa, x2 = 0.095 | 58.76 | 45.02 | 35.26 | 28.08 | 22.77 | 18.73 | 15.62
100 kPa, x2 = 0.1 | 58.33 | 44.78 | 35.04 | 27.95 | 22.7 | 18.68 | 15.59
100 kPa, x2 = 0.127 | 58.17 | 44.43 | 34.74 | 27.73 | 22.52 | 18.53 | 15.47
100 kPa, x2 = 0.141 | 53 | 41.15 | 32.1 | 25.58 | 20.76 | 17.09 | 14.27
101 kPa, x1 = 0.02061 | – | – | 1.451 | 1.287 | 1.15 | 1.033 | 0.934
101 kPa, x1 = 0.03953 | – | – | 2.341 | 2.041 | 1.792 | 1.59 | 1.415
101 kPa, x1 = 0.0599 | – | – | 3.478 | 2.972 | 2.58 | 2.255 | 1.991
101 kPa, x1 = 0.07592 | – | – | 4.756 | 4.032 | 3.462 | 3 | 2.611
101 kPa, x1 = 0.1016 | – | – | 6.252 | 5.242 | 4.462 | 3.826 | 3.31
101 kPa, x1 = 0.1513 | – | – | 10.33 | 8.453 | 7.029 | 5.949 | 5.054
101 kPa, x1 = 0.2017 | – | – | 14.42 | 11.67 | 9.591 | 8.033 | 6.728
101 kPa, x1 = 0.2516 | – | – | 18.17 | 14.56 | 11.86 | 9.792 | 8.187
101 kPa, x1 = 0.3006 | – | – | 21.41 | 17.03 | 13.78 | 11.37 | 9.052
101 kPa, x1 = 0.4019 | – | – | 26.38 | 21.32 | 16.99 | 13.74 | 11.78
101 kPa, x1 = 0.5049 | – | – | 29.88 | 23.52 | 18.93 | 15.47 | 12.75
101 kPa, x1 = 0.597 | – | – | 31.86 | 25.09 | 20.18 | 16.44 | 13.63
101 kPa, x1 = 0.6977 | – | – | 33.27 | 26.31 | 21.16 | 17.27 | 14.27
101 kPa, x1 = 0.7514 | – | – | 33.84 | 26.7 | 21.5 | 17.58 | 14.5
101 kPa, x1 = 0.8072 | – | – | 34.28 | 27.15 | 21.87 | 17.89 | 14.76
101 kPa, x1 = 0.851 | – | – | 34.46 | 27.39 | 22.04 | 18.06 | 14.94
101 kPa, x1 = 0.9043 | – | – | 34.63 | 27.53 | 22.2 | 18.19 | 15.08
101 kPa, x1 = 0.956 | – | – | 34.9 | 27.7 | 22.43 | 18.33 | 15.2
101.33 kPa, x1 = 0.0003 | – | – | 0.784 | 0.71 | – | – | –
101.33 kPa, x1 = 0.0008 | – | – | 0.794 | 0.717 | – | – | –
101.33 kPa, x1 = 0.0012 | – | – | 0.804 | 0.726 | – | – | –
101.33 kPa, x1 = 0.0027 | – | – | 0.843 | 0.758 | – | – | –
101.33 kPa, x1 = 0.0051 | – | – | 0.909 | 0.812 | – | – | –
101.33 kPa, x1 = 0.0115 | – | – | 1.094 | 0.972 | – | – | –
101.33 kPa, x1 = 0.0339 | – | – | 1.958 | 1.688 | – | – | –
101.33 kPa, x1 = 0.0941 | – | – | 5.694 | 4.713 | – | – | –
101.33 kPa, x1 = 0.2972 | – | – | 21.42 | 16.7 | – | – | –
101.33 kPa, x1 = 0.3958 | – | – | 25.89 | 20.27 | – | – | –
101.33 kPa, x1 = 0.5753 | – | – | 30.52 | 23.92 | – | – | –
101.33 kPa, x1 = 0.6691 | – | – | 31.87 | 24.93 | – | – | –
101.33 kPa, x1 = 0.7737 | – | – | 33.08 | 26.26 | – | – | –
101.33 kPa, x1 = 0.8847 | – | – | 34.03 | 26.69 | – | – | –
101.33 kPa, x1 = 0.9219 | – | – | 34.27 | 26.79 | – | – | –
